Laboratory results published in US6630316B1, “Method for measurement of lymphocyte function” (priority 1996, dated 2003).

Tested on: T lymphocytes (CD4) in whole blood
Assay: T cell response to mitogens in a whole blood sample (CD4 separation, ATP luminescence)
Format: cell-based
Settings: whole blood diluted 1:5, incubated overnight at 37 C; PHA at 1%, IL-2 at 1000 U/ml; control 458,451

Substance: IL-2
- Relative Light Units: 2,632,415 Relative Light Units
